These are literature values, as cited in paper PMC10803328 (Scientific Reports, 2024).

By UniProt entry, the sequences of proteins in these tests, tags left out. Where a name states a change or a piece, a line headed by the entry shows the natural chain unless it says otherwise.
UniProt P23415: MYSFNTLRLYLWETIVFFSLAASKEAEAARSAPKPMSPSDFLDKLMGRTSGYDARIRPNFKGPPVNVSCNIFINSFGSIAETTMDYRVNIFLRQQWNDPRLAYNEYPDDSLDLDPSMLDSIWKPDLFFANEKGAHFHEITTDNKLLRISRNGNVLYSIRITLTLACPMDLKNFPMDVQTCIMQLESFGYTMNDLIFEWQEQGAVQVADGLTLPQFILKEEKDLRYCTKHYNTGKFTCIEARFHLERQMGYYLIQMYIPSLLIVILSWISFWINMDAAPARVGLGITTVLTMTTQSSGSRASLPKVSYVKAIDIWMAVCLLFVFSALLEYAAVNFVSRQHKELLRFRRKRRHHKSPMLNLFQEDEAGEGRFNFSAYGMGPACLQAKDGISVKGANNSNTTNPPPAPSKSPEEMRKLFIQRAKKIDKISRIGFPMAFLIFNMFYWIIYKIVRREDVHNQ
UniProt P36544: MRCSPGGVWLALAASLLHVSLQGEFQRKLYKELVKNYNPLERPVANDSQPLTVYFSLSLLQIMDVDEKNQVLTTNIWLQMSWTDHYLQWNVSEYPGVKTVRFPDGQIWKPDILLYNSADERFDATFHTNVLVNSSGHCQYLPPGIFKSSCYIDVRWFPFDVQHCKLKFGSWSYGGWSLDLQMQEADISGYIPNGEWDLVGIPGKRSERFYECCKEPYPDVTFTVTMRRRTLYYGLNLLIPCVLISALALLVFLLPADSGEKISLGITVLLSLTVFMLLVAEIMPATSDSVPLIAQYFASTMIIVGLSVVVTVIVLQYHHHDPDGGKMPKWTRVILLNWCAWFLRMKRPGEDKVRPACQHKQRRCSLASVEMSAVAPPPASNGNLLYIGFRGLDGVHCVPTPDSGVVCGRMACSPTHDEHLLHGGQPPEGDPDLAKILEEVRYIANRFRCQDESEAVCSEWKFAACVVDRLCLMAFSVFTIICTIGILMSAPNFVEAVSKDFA

By Ki is commonly meant the equilibrium dissociation constant of an inhibitor or competing ligand from its target.

In this data set the target is PSAM^4-GlyR (Homo sapiens, UniProt P23415+P36544, L131G/Q139L/Y217F). On the set-up: expressed in transfected cells; method as in PMID 30872534, PMID 24556591, PMID 36279419. The conditions noted are these: in vitro binding assay, literature; cited from earlier work.

For the compound `c1cnc2cc3c(cc2n1)[C@@H]1CNC[C@H]3C1` [Varenicline, varenicline], the inhibition constant (Ki) is 1.3 nM.
